A short description of this series: Hemolytic activity. The settings on record: albino, mouse, pH 7.4.

From PMC10603954, “Bacterial Tyrosinase Inhibition, Hemolytic and Thrombolytic Screening, and In Silico Modeling of Rationally Designed Tosyl Piperazine-Engrafted Dithiocarbamate Derivatives” (Biomedicines, 2023) come the findings set out here.

Compound `CCn1c(=NN=c2sc3cc(S(=O)(=O)O)ccc3n2CC)sc2cc(S(=O)(=O)O)ccc21` [ABTS, 2,2′-azino-bis(3-ethylbenzothiazoline-6-sulfonic acid), reference compound] came in with a hemolysis at 0.5 h, 1 mg/mL of 95.9%.
